Laboratory results taken from ChEMBL document CHEMBL1133710 (J Med Chem, 2000).

Protein sequences, listed by entry. Tags and fused reporters are not part of them.
UniProt Q95136, whole entry: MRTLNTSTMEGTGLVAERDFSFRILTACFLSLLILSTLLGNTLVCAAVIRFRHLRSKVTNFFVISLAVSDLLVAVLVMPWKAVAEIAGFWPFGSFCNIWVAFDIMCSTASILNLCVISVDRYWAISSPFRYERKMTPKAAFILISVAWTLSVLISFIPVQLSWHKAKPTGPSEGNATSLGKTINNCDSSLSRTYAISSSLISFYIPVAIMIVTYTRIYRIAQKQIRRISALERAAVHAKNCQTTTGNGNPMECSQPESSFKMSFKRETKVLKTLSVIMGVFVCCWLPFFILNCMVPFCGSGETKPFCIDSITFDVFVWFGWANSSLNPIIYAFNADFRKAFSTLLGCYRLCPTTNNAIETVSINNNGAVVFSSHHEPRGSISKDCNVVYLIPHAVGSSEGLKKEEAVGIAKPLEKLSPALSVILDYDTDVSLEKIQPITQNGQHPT

Key:
[1] = target: D(2) dopamine receptor (Bos taurus) (UniProt P20288); test: Binding Affinity was determined for decoupling of the ternary complex of Compound to Bovine dopamine receptor D2. Tested for ability to displace the radioligand [3H]spiperone at the binding site.
[2] = target: T1, D(2) dopamine receptor (Bos taurus, UniProt P20288); test: Binding Affinity was tested on high Affinity Site of Bovine Dopamine D2 Receptor. Tested for ability to displace the radioligand [3H]-Spiperone
[3] = target: T1, D(2) dopamine receptor; test: Dissociation constant of compound on one-site model Bovine dopamine receptor D2. Tested for ability to displace the radioligand [3H]spiperone at the binding site.
[4] = target: T1, D(2) dopamine receptor; test: Binding Affinity was tested on low Affinity Site of Bovine dopamine receptor D2. Tested for ability to displace the radioligand [3H]spiperone at the binding site.
[5] = target: D(1A) dopamine receptor (Bos taurus, UniProt Q95136); test: Binding Affinity was tested on High Affinity Site of Bovine dopamine receptor D1. Tested for ability to displace the radioligand [3H]-SCH- 23390
[6] = target: T1, D(2) dopamine receptor; test: Binding Affinity was tested on high Affinity Site of Bovine dopamine receptor D2. Tested for ability to displace the radioligand [3H]pramipexole

- Ki [1]: 17000 nM
- Ki [2]: 57 nM
- Ki [3]: 750 nM
- Ki [4]: 4100 nM
- Ki [5]: > 20000 nM
- Ki [6]: 15 nM
Structure (SMILES): C#CC1=CCC(N(CCC)CCC)CC1 (stereo unspecified)
